Measured values reported in ChEMBL document CHEMBL1124488 (J Med Chem, 1989).

Protein sequences, listed by entry. Tags and fused reporters are not part of them.
UniProt P41144, whole entry: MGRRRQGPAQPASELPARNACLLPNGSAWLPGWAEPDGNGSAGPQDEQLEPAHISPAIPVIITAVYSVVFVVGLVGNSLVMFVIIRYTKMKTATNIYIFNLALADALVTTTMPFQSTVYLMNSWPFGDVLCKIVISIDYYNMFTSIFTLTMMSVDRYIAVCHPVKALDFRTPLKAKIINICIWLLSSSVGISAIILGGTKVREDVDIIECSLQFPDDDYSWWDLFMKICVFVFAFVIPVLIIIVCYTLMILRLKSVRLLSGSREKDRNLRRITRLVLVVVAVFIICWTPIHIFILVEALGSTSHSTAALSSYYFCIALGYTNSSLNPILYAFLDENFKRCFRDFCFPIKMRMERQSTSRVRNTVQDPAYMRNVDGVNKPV
UniProt P97266, whole entry: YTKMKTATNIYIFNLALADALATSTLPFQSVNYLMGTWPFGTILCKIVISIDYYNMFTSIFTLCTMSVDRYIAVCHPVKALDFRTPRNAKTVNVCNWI

Columns and labels:
[1] = target: Kappa-type opioid receptor (Cavia porcellus, UniProt P41144); experiment: Binding inhibition against opioid receptor kappa of guinea pig was determined using [3H]ethylketocyclazocine
Mu-type opioid receptor = Mu-type opioid receptor (Cavia porcellus, UniProt P97266); experiment: Inhibitory activity against opioid receptor mu of guinea pig brain using [3H]DAGO radioligand
Mus musculus = experiment: In vivo evaluation for analgesia 30 minutes after subcutaneous administration in mouse phenylquinone writhing assay

Structure (SMILES) | IC50 [1] [nM] | IC50 (Mu-type opioid receptor) [nM] | ED50 (Mus musculus) [mg/kg]
CC(C)CN(C(=O)c1ccc(Br)cc1)[C@H]1CCCC[C@@]12CCCN2C | > 10000 | 580 | 
CN1CCC[C@@]12CCCC[C@@H]2NC(=O)c1cccc(Br)c1 | > 10000 | > 10000 | 
CN1CCC[C@@]12CCCC[C@@H]2NC(=O)c1ccccc1Br | > 10000 | > 10000 | 
CN(C(=O)c1ccc(Br)cc1)[C@H]1CCCC[C@@]12CCCN2C | 670 |  | 
CN1CCC[C@@]12CCCC[C@@H]2NC(=O)c1ccc(F)cc1 | > 10000 | > 10000 | 
CN1CCC[C@@]12CCCC[C@@H]2N(CC1CC1)C(=O)c1ccc(Br)cc1 | 2800 | 220 | 
Cc1cc(Br)ccc1C(=O)N(C)[C@H]1CCCC[C@@]12CCCN2C | 880 |  | 
CN(C(=O)c1ccc(Br)c(Br)c1)[C@H]1CCCC[C@@]12CCCN2C | 105 |  | 
CN(C(=O)c1ccc(C(F)(F)F)cc1)[C@H]1CCCC[C@@]12CCCN2C | 670 |  | 
CN(C(=O)c1ccc(Cl)c(Cl)c1)[C@H]1CCCC[C@@]12CCCN2C | 309 |  | 
CN1CCC[C@@]12CCCC[C@@H]2NC(=O)c1ccc(Cl)cc1 | > 10000 | 550 | 
CN1CCC[C@@]12CCCC[C@@H]2NC(=O)c1ccc(Cl)c(Cl)c1 | > 10000 | 210 | 7.14
Cc1ccc(C(=O)N(C)[C@H]2CCCC[C@@]23CCCN3C)cc1 | > 10000 | 150 | 
CN1CCC[C@@]12CCCC[C@@H]2NC(=O)c1ccc(Br)cc1 | > 10000 | 600 | 
CN1CCC[C@@]12CCCC[C@@H]2NC(=O)c1ccc(Br)cc1.Cl |  |  | 3.28
COc1ccc(C(=O)N[C@H]2CCCC[C@@]23CCCN3C)cc1 | > 10000 | 2200 | 
CN(C(=O)c1ccc(Br)cc1Cl)[C@H]1CCCC[C@@]12CCCN2C | > 10000 |  | 
